Only some compounds are listed: those with a hit (about 1.9% of all), similar ones and a draw of the others.
UUG fidelity = yeast start codon fidelity modulation; actives 0.13% (n = 350,000); activity score, % at 18.7 µM; S. cerevisiae UUG-firefly luciferase reporter, luminescence/redox ratio;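 active = replicate mean at a twofold rise or more, about +100% in these data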;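 note: firefly luciferase made from a UUG start codon reports start codon fidelity; reporter light over untreated wells divided by growth signal over untreated wells; some hits fall short of that in this replicate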
PDI inh = inhibitors of human PDI, primary screen, biochemical, turbidity, single point, plate reader; Protein disulfide-isomerase (Homo sapiens), P07237; PDI insulin aggregation turbidity, A650, 90 min; inhibition, % at 10 µM; 0.052% of 350,000 active;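 active = mean inhibition across replicates of 30% or more, whatever share of single replicates reach that level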
PglD inh = C. jejuni PglD acetyltransferase inhibitors, primary screen, biochemical, DTNB colorimetric, single point | UDP-N-acetylbacillosamine N-acetyltransferase PglD (Campylobacter jejuni) | purified PglD enzyme, DTNB colorimetric CoA detection | inhibition, % at 12.5 µM | 0.098% of 360,000 active; in the data active = inhibition above about 16%, passing the limit was not always enough
ARNT TACC3 PPI = disruptors of ARNT/TACC3 protein interaction, primary screen, biochemical, AlphaScreen, single concentration | inhibition, % at 9.99 µM | AlphaScreen His-ARNT PAS-B/GST-TACC3 binding, luminescence; TACC3 fragment carries E629A point mutation | AID 623870, 2012 | 0.66% of 390,000 active | Transforming acidic coiled-coil-containing protein 3 (Homo sapiens), Q9Y6A5;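 active = mean inhibition of replicates at least 50% and at least half of replicates each reaching 50%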
FGF22 binding = binders of human FGF22 protein, primary screen, FGF22 synaptogenesis inhibitor project, biophysical, thermal shift, single point. recombinant FGF22 thermal shift, SYPRO orange fluorescence; percent of sucrose octasulfate shift, DMSO zero. AID 651658, 2012. activity (Tm shift, normalised), % at 9.99 µM. 1.5% of 340,000 active. Fibroblast growth factor 22 (Homo sapiens), Q9HCT0;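 active = mean Tm shift, scaled 0 neutral to 100 positive control, at about 1.3% or above, every replicate too, limit read from the data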
ERp5 block = inhibitors of ERp5-driven insulin aggregation, primary screen, biochemical, turbidity, absorbance 650 nm, single point | 0.05% of 350,000 active | 90 min | inhibition, % at 9.99 µM;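 active = mean replicate inhibition above about 25%, with every replicate also reaching it, limit read from the data, passing the limit was not always enough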
Hits are given with their value.

What do the screens show for `COc1ccc(NC(=O)N(C)C[C@H]2Oc3ccc(NS(C)(=O)=O)cc3CC(=O)N([C@@H](C)CO)C[C@@H]2C)cc1`?
UUG fidelity: inactive; PglD inh: inactive; ARNT TACC3 PPI: inactive; FGF22 binding: inactive; ERp5 block: inactive

What do the screens show for `COc1ccc(CN(C)C[C@H]2Oc3ccc(NS(=O)(=O)c4ccc(F)cc4)cc3CC(=O)N([C@@H](C)CO)C[C@@H]2C)cc1`?
UUG fidelity: inactive; PglD inh: inactive; ARNT TACC3 PPI: inactive; FGF22 binding: inactive; ERp5 block: inactive

How did C[C@@H]1CN([C@H](C)CO)C(=O)c2cc(NC(=O)C3CC3)ccc2O[C@H]1CN(C)C do in these assays?
PglD inh: inactive; ARNT TACC3 PPI: 49; FGF22 binding: inactive; ERp5 block: inactive

What do the screens show for `C[C@H](CO)N1C[C@H](C)[C@@H](CN(C)Cc2ccc(Oc3ccccc3)cc2)Oc2ccc(NC(=O)CCCN(C)C)cc2C1=O`?
PglD inh: inactive; ARNT TACC3 PPI: inactive; FGF22 binding: 1.2; ERp5 block: inactive

Results for C[C@H]1CN([C@@H](C)CO)C(=O)c2cc(NC(=O)CCCN(C)C)ccc2O[C@H]1CN(C)Cc1ccc(Oc2ccccc2)cc1 ?
PglD inh: inactive; ARNT TACC3 PPI: inactive; ERp5 block: inactive

How did C[C@@H]1CN([C@H](C)CO)C(=O)c2cc(NC(=O)Nc3ccc(F)cc3)ccc2O[C@H]1CN(C)Cc1ccc(-c2ccccc2)cc1 do in these assays?
UUG fidelity: inactive; PglD inh: inactive; ARNT TACC3 PPI: inactive; FGF22 binding: inactive; ERp5 block: 51

What do the screens show for `COc1ccc2c3c(n(C)c2c1)[C@H](CO)N(Cc1ccncc1)CC31CN(C(=O)C2CCC2)C1`?
FGF22 binding: inactive; ERp5 block: inactive

How did Nc1nc(SCC(=O)NCCO)nc2sc3c(c12)CCCC3 do in these assays?
PDI inh: inactive; ARNT TACC3 PPI: inactive; FGF22 binding: 43; ERp5 block: inactive

Results for C[C@H](CO)N1C[C@H](C)[C@H](CN(C)S(=O)(=O)c2ccc(Cl)cc2)Oc2ccc(NC(=O)Nc3ccc(F)cc3)cc2CC1=O ?
UUG fidelity: inactive; PglD inh: inactive; ARNT TACC3 PPI: inactive; FGF22 binding: inactive; ERp5 block: inactive

Results for CN1CCN(C(=O)C[C@H]2CC[C@H]3[C@@H](COC[C@@H](O)CN3C(=O)Cc3ccccc3)O2)CC1 ?
PglD inh: inactive; ARNT TACC3 PPI: inactive; FGF22 binding: inactive; ERp5 block: inactive

Results for COC(=O)[C@@]1(Cc2ccccc2)[C@H]2C(=O)N(C)C(=O)[C@H]2[C@H]2CN=C(SCc3ccc(Cl)cc3)N21 ?
UUG fidelity: inactive; PDI inh: inactive; PglD inh: inactive; ARNT TACC3 PPI: inactive; FGF22 binding: 43; ERp5 block: inactive

Results for COc1ccccc1S(=O)(=O)N[C@H]1CC[C@H](CC(=O)NCc2cc(F)cc(F)c2)O[C@@H]1CO ?
ERp5 block: inactive

How did N/C(=N\OC(=O)c1cccc(Cl)c1)c1cccnc1 do in these assays?
UUG fidelity: inactive; PDI inh: inactive; PglD inh: inactive; ARNT TACC3 PPI: inactive

Results for N/C(=N\OC(=O)C1CCCCC1)c1ccc(Br)cc1 ?
UUG fidelity: inactive; PDI inh: inactive; PglD inh: inactive; ARNT TACC3 PPI: inactive; FGF22 binding: inactive; ERp5 block: inactive

How did N/C(=N\OC(=O)c1cccc(Cl)c1)c1ccncc1 do in these assays?
PDI inh: inactive; FGF22 binding: 45; ERp5 block: inactive

Results for N/C(=N\OC(=O)C1CCCCC1)c1ccncc1 ?
PDI inh: inactive; ARNT TACC3 PPI: inactive; FGF22 binding: 43; ERp5 block: inactive

What do the screens show for `CCC(=O)N(C)C[C@@H]1Oc2cc(-c3ccccc3F)ccc2S(=O)(=O)N([C@@H](C)CO)C[C@H]1C`?
UUG fidelity: inactive; PglD inh: inactive; ARNT TACC3 PPI: inactive; FGF22 binding: inactive; ERp5 block: inactive

Results for CCOCCCNC(=O)CCCC1=NS(=O)(=O)c2ccccc2N1 ?
UUG fidelity: inactive; PDI inh: inactive; PglD inh: inactive; ARNT TACC3 PPI: active; FGF22 binding: inactive; ERp5 block: inactive

Results for COc1ccc(/C=N/Nc2nc(N3CCCC3)nc(N3CCCC3)n2)cc1 ?
UUG fidelity: inactive; PDI inh: inactive; PglD inh: inactive; ARNT TACC3 PPI: inactive; FGF22 binding: inactive; ERp5 block: inactive

How did COC(=O)c1ccc(/C=N/Nc2nc(N3CCCCC3)nc(N3CCCCC3)n2)cc1 do in these assays?
PDI inh: inactive; FGF22 binding: 44; ERp5 block: inactive

What do the screens show for `O=C(C[C@H]1C[C@H]2c3cc(NC(=O)CC4CC4)ccc3O[C@H]2[C@H](CO)O1)NCC(F)(F)F`?
UUG fidelity: inactive; PglD inh: inactive; ARNT TACC3 PPI: inactive; FGF22 binding: inactive; ERp5 block: inactive

How did O=C(C[C@H]1C[C@@H]2c3cc(NC(=O)C4CCOCC4)ccc3O[C@@H]2[C@@H](CO)O1)NCC(F)(F)F do in these assays?
PglD inh: inactive; ARNT TACC3 PPI: inactive; FGF22 binding: inactive; ERp5 block: inactive

How did CN1CCN(C(=O)C[C@@H]2C[C@H]3c4cc(NC(=O)C5CCOCC5)ccc4O[C@H]3[C@@H](CO)O2)CC1 do in these assays?
UUG fidelity: inactive; PglD inh: inactive; ARNT TACC3 PPI: inactive; FGF22 binding: inactive; ERp5 block: inactive

Results for O=C(C[C@@H]1C[C@H]2c3cc(NC(=O)C4CCC4)ccc3O[C@H]2[C@@H](CO)O1)NCC(F)(F)F ?
UUG fidelity: inactive; PglD inh: inactive; ARNT TACC3 PPI: inactive; FGF22 binding: inactive; ERp5 block: 77

What do the screens show for `CN1CCN(C(=O)C[C@@H]2C[C@@H]3c4cc(NC(=O)C5CCOCC5)ccc4O[C@@H]3[C@H](CO)O2)CC1`?
UUG fidelity: inactive; PglD inh: inactive; ARNT TACC3 PPI: inactive; FGF22 binding: inactive; ERp5 block: 37

What do the screens show for `O=C(C[C@H]1C[C@@H]2c3cc(NC(=O)C4CCC4)ccc3O[C@@H]2[C@H](CO)O1)NCC(F)(F)F`?
UUG fidelity: inactive; PglD inh: inactive; ARNT TACC3 PPI: inactive; FGF22 binding: inactive; ERp5 block: 43

Results for Cc1ccc(C(=O)NCC(=O)N2CCCN(S(=O)(=O)c3ccc(C)cc3)CC2)cc1 ?
PDI inh: inactive; ARNT TACC3 PPI: inactive; FGF22 binding: inactive; ERp5 block: inactive

What do the screens show for `Cc1ccc(S(=O)(=O)N2CCN(C(=O)CNC(=O)c3ccc(Cl)cc3)CC2)cc1`?
UUG fidelity: inactive; PDI inh: inactive; PglD inh: inactive; ARNT TACC3 PPI: inactive; FGF22 binding: 44; ERp5 block: inactive

Bioassay records from PubChem BioAssay.
